Test system: aromatase
Assay: in vivo inhibition of aromatase activity: suppression of ovarian estrogen content of PMS-hCG primed female rats
Parameters: species or system rat

SMILES	minimal effective dose (Rattus norvegicus, po, aromatase inhibition (suppression of ovarian estrogen content of female rats)) [mg/kg]	inhibition of estrogen synthesis (rat, in vivo)
Brc1ccc(C2CCCc3cncn32)cc1 (centres unmarked) [Example 17, 5-(p-Bromophenyl)-5,6,7,8-tetrahydroimidazo[1,5-a]-pyridine]	0.133	–
N#Cc1ccc(C2CCCc3cncn32)cc1 (racemic) [5-(p-Cyanophenyl)-5,6,7,8-tetrahydroimidazo[1,5-a]-pyridine]	–	statistically significant inhibition of estrogen synthesis
